# From PubChem BioAssay AID624377 (The Scripps Research Institute Molecular Screening Center, 2012)
# Amino acid sequences for entries named in this document (tags omitted). Residues count along the entry.
# UniProt Q9ULH1, 325-724 limits assumed: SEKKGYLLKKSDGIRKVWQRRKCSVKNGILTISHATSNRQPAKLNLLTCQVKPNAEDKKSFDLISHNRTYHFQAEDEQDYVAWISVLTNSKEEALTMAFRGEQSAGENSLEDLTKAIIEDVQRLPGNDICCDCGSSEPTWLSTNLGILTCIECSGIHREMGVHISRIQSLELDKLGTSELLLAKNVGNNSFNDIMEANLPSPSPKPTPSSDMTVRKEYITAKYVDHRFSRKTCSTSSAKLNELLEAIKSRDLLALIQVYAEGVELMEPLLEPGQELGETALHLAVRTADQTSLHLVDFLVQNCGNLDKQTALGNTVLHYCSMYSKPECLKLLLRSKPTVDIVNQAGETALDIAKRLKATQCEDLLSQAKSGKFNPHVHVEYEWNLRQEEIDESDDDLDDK
# This is a selection; strong and weak results do not stand in their true shares. The source made the active and inactive calls. Cut-off read from the data, not from the text of the source: active = inhibition above about 25%; inactive = the rest.
# Target: Arf-GAP with SH3 domain, ANK repeat and PH domain-containing protein 1 (Homo sapiens) (UniProt Q9ULH1)
# Assay: blockers of ASAP1-stimulated ARF1 GTP hydrolysis – biochemical, fluorescence polarization, primary screen (AID 624377);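 note: 0% = vehicle with enzyme and substrate and 100% = no enzyme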
# Conditions: GDP FP detection, at 16.5 µM, active compounds read high
row,Structure (SMILES),inhibition
1,CCC(=O)N(c1ccccc1)C1(COC)CCN(CCn2nnn(CC)c2=O)CC1,inactive: 2.22%
2,CCC(=O)N(c1ccccc1)C1(COC)CCN(CCc2cccs2)CC1,inactive: -9.01%
